Laboratory results published in patent US20250134869A1, “Pyrrolo[2,3-d]pyrimidinyl, Pyrrolo[2,3-b]pyrazinyl and Pyrrolo[2,3-d]pyridinyl Acryla-mides” (Pfizer Inc, priority 2021, published 2025).

Chains of the proteins cited; added tags and fusions are not shown.
UniProt P52333, whole entry, species assumed: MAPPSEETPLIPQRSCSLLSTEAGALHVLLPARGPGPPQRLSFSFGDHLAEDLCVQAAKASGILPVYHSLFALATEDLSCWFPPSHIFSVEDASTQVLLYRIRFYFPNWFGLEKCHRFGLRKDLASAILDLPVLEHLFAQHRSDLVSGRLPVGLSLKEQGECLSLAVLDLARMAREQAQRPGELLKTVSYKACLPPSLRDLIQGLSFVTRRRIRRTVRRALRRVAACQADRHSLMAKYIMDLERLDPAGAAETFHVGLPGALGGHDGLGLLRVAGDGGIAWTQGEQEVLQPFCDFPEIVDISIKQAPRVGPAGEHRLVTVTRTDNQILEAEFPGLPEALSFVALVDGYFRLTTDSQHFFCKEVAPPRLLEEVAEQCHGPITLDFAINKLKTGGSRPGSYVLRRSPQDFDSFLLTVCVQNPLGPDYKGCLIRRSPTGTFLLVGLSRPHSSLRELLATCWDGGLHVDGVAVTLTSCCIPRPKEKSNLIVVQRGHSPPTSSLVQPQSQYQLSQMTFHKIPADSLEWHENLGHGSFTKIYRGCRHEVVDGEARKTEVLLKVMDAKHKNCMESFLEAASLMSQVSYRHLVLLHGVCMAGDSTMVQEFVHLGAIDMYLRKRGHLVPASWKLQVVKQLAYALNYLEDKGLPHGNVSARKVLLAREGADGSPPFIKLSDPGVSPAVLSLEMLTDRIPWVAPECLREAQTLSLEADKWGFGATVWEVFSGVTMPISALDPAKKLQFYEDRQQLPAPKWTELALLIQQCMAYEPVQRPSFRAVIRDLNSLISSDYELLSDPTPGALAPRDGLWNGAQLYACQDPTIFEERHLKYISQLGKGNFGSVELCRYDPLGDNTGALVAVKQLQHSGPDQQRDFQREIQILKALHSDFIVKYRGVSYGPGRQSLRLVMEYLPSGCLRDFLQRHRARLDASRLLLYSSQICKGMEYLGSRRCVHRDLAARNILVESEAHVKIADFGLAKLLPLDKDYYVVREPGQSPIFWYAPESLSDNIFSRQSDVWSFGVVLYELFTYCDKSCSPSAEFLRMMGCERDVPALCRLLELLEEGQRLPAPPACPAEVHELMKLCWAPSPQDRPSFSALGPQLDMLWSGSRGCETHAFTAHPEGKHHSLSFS

Molecular target: JAK3 enzyme (Homo sapiens (Human), UniProt P52333)
Assay: JAK Caliper Enzyme Assay at 4 μM or 1 mM ATP
Format: biochemical
Description: JAK Caliper Enzyme Assay at […] or 1 mM ATP
Test article was solubilized in dimethyl sulfoxide (DMSO) to a stock concentration of 30 mM. An 11-point half log dilution series was created in DMSO with a top concentration of 600 μM. […] The compound plates were diluted 1 to 60 resulting in a top final assay compound concentration of 10 μM and a 2% DMSO concentration.
Test article and assay controls were added to a 384-well plate. Reaction mixtures contained 20 mM HEPES, pH 7.4, 10 mM magnesium chloride, 0.01% bovine serum albumin (BSA), 0.0005% Tween […] or 1 mM ATP and […] peptide substrate. […] The assays were initiated by the addition 1 nM JAK3 enzyme and were incubated at room temperature 75 minutes for JAK3. Enzyme concentrations and incubation times were optimized for each new enzyme preps and were modified slightly over time to ensure 20%-30% phosphorylation. The assays were stopped with a final concentration of 10 mM EDTA, 0.1% Coating Reagent and 100 mM HEPES, pH=7.4. The assay plates were placed on a Caliper Life Science Lab Chip 3000 (LC3000) instrument, and each well was sampled using appropriate separation conditions to measure the unphosphorylated and phosphorylated peptide.

[1] = read-out: JAK3 (4 μM ATP) IC50, 4 μM ATP
[2] = read-out: JAK3 (1 mM ATP) IC50, 1 mM ATP

SMILES	pIC50 [1]	pIC50 [2]
C=CC(=O)N1CCC[C@@H](Nc2ncnc3[nH]cc(-c4ccc(OCC)nc4)c23)C1 [Example 33, 1-[(3R)-3-{[5-(6-ethoxypyridin-3-yl)-7H-pyrrolo[2,3-d]pyrimidin-4-yl]amino}piperidin-1-yl]prop-2-en-1-one]	7.31	
C=CC(=O)N1C[C@H](Nc2ncnc3[nH]ccc23)CC[C@@H]1CO [Example 161, 1-[(2R,5R)-2-(Hydroxymethyl)-5-(7H-pyrrolo[2,3-d]pyrimidin-4-ylamino)piperidin-1-y]prop-2-en-1-one]	9.52	7.34
C=CC(=O)N1C[C@H](C)C[C@H](Nc2ncnc3[nH]ccc23)C1 [Example 128, 1-[(3R,5S)-3-Methyl-5-(7H-pyrrolo[2,3-d]pyrimidin-4-ylamino)piperidin-1-yl]prop-2-en-1-one]	6.35	< 5.00
C=CC(=O)N1CC2(CCN(c3cnc4[nH]cc(C(=O)NC(C)C)c4n3)C2)C1 [Example 296, 2-(2-acryloyl-2,6-diazaspiro[3.4]oct-6-yl)-N-(propan-2-yl)-5H-pyrrolo[2,3-b]pyrazine-7-carboxamide]	7.25	
C=C(CN(C)C)C(=O)N1CCC[C@@H](Nc2ncnc3[nH]ccc23)C1 [Example 92, 2-[(dimethylamino)methyl]-1-[(3R)-3-(7H-pyrrolo[2,3-d]pyrimidin-4-ylamino)piperidin-1-yl]prop-2-en-1-one]		< 5.00
C=CC(=O)N1C[C@H](Nc2ncnc3[nH]ccc23)CC[C@@H]1CO (single isomer, unassigned) [Example 7]	9.52	7.34
C=CC(=O)N1CC[C@@H]2CCN(c3nc(N)nc4[nH]ccc34)[C@@H]2C1 [Example 73, 1-[(3aS,7aS)-1-(2-Amino-7H-pyrrolo[2,3-d]pyrimidin-4-yl)octahydro-6H-pyrrolo[2,3-c]pyridin-6-yl]prop-2-en-1-one]	7.32	
C=CC(=O)NC1CCN(c2cnc3[nH]cc(C(=O)NC(C)C)c3n2)C1 (centres unmarked) [Example 195, 2-[3-(acryloylamino)pyrrolidin-1-yl]-N-(propan-2-yl)-5H-pyrrolo[2,3-b]pyrazine-7-carboxamide]	7.92	
C=CC(=O)N1C[C@@H](C)C[C@H](Nc2ncnc3[nH]ccc23)C1 [Example 75, 1-((3S,5S)-3-((7H-Pyrrolo[2,3-d]pyrimidin-4-yl)amino)-5-methylpiperidin-1-yl)prop-2-en-1-one]	6.15	< 5.00
CC(C)=C(C#N)C(=O)N1CCCC(Nc2ncnc3[nH]ccc23)C1 (centres unmarked) [Example 96, 3-methyl-2-{[3-(7H-pyrrolo[2,3-d]pyrimidin-4-ylamino)piperidin-1-yl]carbonyl}but-2-enenitrile]		< 5.00
O=C(/C=C/C(F)(F)F)N1CC[C@@H]2CCN(c3ncnc4[nH]ccc34)[C@@H]2C1 [Example 81, (2E)-4,4,4-trifluoro-1-[(3aS,7aS)-1-(7H-pyrrolo[2,3-d]pyrimidin-4-yl)octahydro-6H-pyrrolo[2,3-c]pyridin-6-yl]but-2-en-1-one]	7.45	
C=CC(=O)N1CCC(Oc2cnc3[nH]cc(-c4cnc(N5CCOCC5)nc4)c3n2)CC1 [Example 223, 1-[4-({7-[2-(morpholin-4-yl)pyrimidin-5-yl]-5H-pyrrolo[2,3-b]pyrazin-2-yl}oxy)piperidin-1-yl]prop-2-en-1-one]	7.52	

The remaining lines, values ahead:

pIC50 [1]	pIC50 [2]	SMILES
8.12	6.22	C=CC(=O)N1C[C@H](Nc2ncnc3[nH]ccc23)CCC1(C)C (single isomer, unassigned) [Example 61]
7.86		C=CC(=O)N(C)[C@@H]1CCN(c2cnc3[nH]cc(C(=O)NC(C)C)c3n2)C1 [Example 190, 2-{(3R)-3-[acryloyl(methyl)amino]pyrrolidin-1-yl}-N-(propan-2-yl)-5H-pyrrolo[2,3-b]pyrazine-7-carboxamide]
> 9.40	7.32	C=CC(=O)N1CC[C@@H]2CCN(c3ncnc4[nH]ccc34)[C@@H]2C1 (single isomer, unassigned) [Example 8]
9.30	7.22	C=CC(=O)N1C[C@@H](C)C[C@@H](Nc2ncnc3[nH]ccc23)C1 (single isomer, unassigned) [Example 14]
8.28	6.37	C=CC(=O)N1CC2CCC1CN2c1cnc2[nH]cc(C(=O)NC(C)C)c2n1 (centres unmarked) [Example 308, 2-(5-acryloyl-2,5-diazabicyclo[2.2.2]oct-2-yl)-N-(propan-2-yl)-5H-pyrrolo[2,3-b]pyrazine-7-carboxamide]
8.70	6.94	C=CC(=O)N1CC[C@H](C)[C@@H](Nc2ncnc3[nH]ccc23)C1 (racemic) [Example 50, 1-[(3R,4S)-4-methyl-3-(7H-pyrrolo[2,3-d]pyrimidin-4-ylamino)piperidin-1-yl]prop-2-en-1-one]
7.64		O=C(/C=C/C(F)F)N1CC[C@@H]2CCN(c3ncnc4[nH]ccc34)[C@@H]2C1 [Example 80, (2E)-4,4-difluoro-1-[(3aS,7aS)-1-(7H-pyrrolo[2,3-d]pyrimidin-4-yl)octahydro-6H-pyrrolo[2,3-c]pyrdin-6-yl]but-2-en-1-one]
7.59		C=CC(=O)N1CCN(c2cnc3[nH]ccc3n2)CC1 [Example 172, 1-[4-(5H-pyrrolo[2,3-b]pyrazin-2-yl)piperazin-1-yl]prop-2-en-1-one]
7.81		C=CC(=O)N1CCC(Oc2cnc3[nH]cc(-c4c(C)nn(C)c4C)c3n2)CC1 [Example 221, 1-(4-{[7-(1,3,5-trimethyl-1H-pyrazol-4-yl)-5H-pyrrolo[2,3-b]pyrazin-2-yl]oxy}piperidin-1-yl)prop-2-en-1-one]
8.22	6.24	C=CC(=O)N1C[C@@H](C)N(c2cnc3[nH]cc(C(=O)NC(C)C)c3n2)C[C@@H]1C [Example 327, 2-[(2R,5S)-4-acryloyl-2,5-dimethylpiperazin-1-yl]-N-(propan-2-yl)-5H-pyrrolo[2,3-b]pyrazine-7-carboxamide]
8.31	6.30	C=CC(=O)N1C[C@@H](C)N(c2cnc3[nH]cc(C(=O)NC(C)C)c3n2)C[C@H]1C [Example 326, 2-[(2R,5R)-4-acryloyl-2,5-dimethylpiperazin-1-yl]-N-(propan-2-yl)-5H-pyrrolo[2,3-b]pyrazine-7-carboxamide]
8.34	6.14	C=CC(=O)N1C[C@H](C)N(c2cnc3[nH]cc(C(=O)NC(C)C)c3n2)C[C@H]1C [Example 298, 2-[(2S,5R)-4-acryloyl-2,5-dimethylpiperazin-1-yl]-N-(propan-2-yl)-5H-pyrrolo[2,3-b]pyrazine-7-carboxamide]
7.68		C=CC(=O)N1CCC(Nc2cnc3[nH]cc(C(=O)NC(C)(C)C)c3n2)C[C@@H]1C (mixture of isomers) [Example 340]
9.15	7.35	C=CC(=O)N1CCC[C@H]1CNc1cnc2[nH]cc(C(=O)NC(C)C)c2n1 [Example 177, 2-({[(2S)-1-acryloylpyrrolidin-2-yl]methyl}amino)-N-(propan-2-yl)-5H-pyrrolo[2,3-b]pyrazine-7-carboxamide]
8.15	6.20	C=CC(=O)N1C[C@@H]2CC[C@H]1CN2c1cnc2[nH]cc(C(=O)NC(C)C)c2n1 [Example 304, 2-[(1S,4S)-5-acryloyl-2,5-diazabicyclo[2.2.2]oct-2-yl]-N-(propan-2-yl)-5H-pyrrolo[2,3-b]pyrazine-7-carboxamide]
7.99		C=CC(=O)N[C@@H]1CCN(c2cnc3[nH]cc(C(=O)NC(C)C)c3n2)C1 [Example 181, 2-[(3R)-3-(acryloylamino)pyrrolidin-1-yl]-N-(propan-2-yl)-5H-pyrrolo[2,3-b]pyrazine-7-carboxamide]
9.40	7.25	C=CC(=O)N1CC[C@H](C)[C@@H](Nc2ncnc3[nH]ccc23)C1 [Example 11, 1-((3R,4S)-3-((7H-pyrrolo[2,3-d]pyrimidin-4-yl)amino)-4-methylpiperidin-1-yl)prop-2-en-1-one]

pIC50: −log10 of the molar value. Read-outs that look alike come from different tables or passages of the source.
